Target: T1, glucocorticoid receptor (Homo sapiens, UniProt P04150)
T1 construct: expressed in transfected cells; host or cells: CV1 (transformed African Green Monkey kidney cell line)
T1 sequence (P04150 1-777): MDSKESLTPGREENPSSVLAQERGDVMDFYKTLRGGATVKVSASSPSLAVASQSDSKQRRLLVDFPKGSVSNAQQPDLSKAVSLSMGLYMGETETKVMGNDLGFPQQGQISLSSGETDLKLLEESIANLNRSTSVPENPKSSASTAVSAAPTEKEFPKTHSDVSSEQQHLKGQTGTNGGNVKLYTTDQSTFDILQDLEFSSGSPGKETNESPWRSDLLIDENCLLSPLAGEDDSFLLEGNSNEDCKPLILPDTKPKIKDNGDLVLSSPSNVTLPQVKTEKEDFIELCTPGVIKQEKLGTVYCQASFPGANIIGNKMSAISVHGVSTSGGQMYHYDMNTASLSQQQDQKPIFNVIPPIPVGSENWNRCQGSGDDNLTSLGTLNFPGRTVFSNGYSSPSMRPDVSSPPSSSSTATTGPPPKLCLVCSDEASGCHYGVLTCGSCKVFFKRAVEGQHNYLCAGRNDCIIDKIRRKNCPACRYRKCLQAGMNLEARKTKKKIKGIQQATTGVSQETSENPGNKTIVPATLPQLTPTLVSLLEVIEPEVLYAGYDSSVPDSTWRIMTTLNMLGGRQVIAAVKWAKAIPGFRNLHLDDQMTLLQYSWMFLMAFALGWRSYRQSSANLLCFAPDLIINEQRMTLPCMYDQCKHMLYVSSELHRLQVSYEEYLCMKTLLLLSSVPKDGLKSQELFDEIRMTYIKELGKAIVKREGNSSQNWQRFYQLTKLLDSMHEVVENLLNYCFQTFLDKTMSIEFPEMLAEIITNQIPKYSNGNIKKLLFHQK
Assay: Experiment 2: PGL3MMTV-luciferase transactivation in CV1 cells with glucocorticoid receptor (GR1)
Assay type: cell-based
Settings: substance alone at 10^-7M

Raw counts (GR1): 619085 counts | % control (GR1) (Blank = 100): 17346%
Structure (SMILES): C[C@@H]1C[C@H]2[C@@H]3CCC4=CC(=O)C=C[C@]4(C)[C@@]3(F)[C@@H](O)C[C@]2(C)[C@@]1(O)C(=O)CO [Dex, dexamethazone, reference compound]

Reference: patent US20070213402A1, “Compounds which interact with the thyroid hormone receptor for the treatment of fibrotic disease” (priority 1998, published 2007)
